Experimental data reported in patent US10689377B2 (dated 2020).

Assays:
[1] = biological target: KRas G12C (Homo sapiens, UniProt P01116, C118S/C51S/C80L/G12C); test: KRas G12C Modification Assay (LCMS detection of covalent adduct); type: binding; conditions: normalized percent of control; 5 μM concentration for 3 hours
[2] = biological target: KRas G12C (Homo sapiens, UniProt P01116, G12C); test: Cellular inhibition of KRas G12C measured by Phospho-ERK in NCI-H358 cells; type: cell-based; conditions: IC50, pERK(Thr202/Tyr204) normalized with GAPDH, 3 hours

Row | SMILES | POC [1] | IC50 [2]
1 | C=CC(=O)N1CCN(c2nc(OC[C@@H]3CCCN3C)nc3c2CCN(c2cc(O)cc4ccccc24)C3)CC1 [Example 127, (S)-1-(4-(7-(3-hydroxynaphthalen-1-yl)-2-((1-methylpyrrolidin-2-yl)methoxy)-5,6,7,8-tetrahydropyrido[3,4-d]pyrimidin-4-yl)piperazin-1-yl)prop-2-en-1-one] | C (“C”>50% POC) | 0.0001 to 1 µM
2 | C=CC(=O)N1CCN(c2nc(OC[C@H]3CCCN3C)nc3c2CCN(c2cc(O)cc4ccccc24)C3)CC1 [Example 187, (R)-1-(4-(7-(3-hydroxynaphthalen-1-yl)-2-((1-methylpyrrolidin-2-yl)methoxy)-5,6,7,8-tetrahydropyrido[3,4-d]pyrimidin-4-yl)piperazin-1-yl)prop-2-en-1-one] | C (“C”>50% POC) | 0.0001 to 1 µM
3 | C=CC(=O)N1CCN(c2nc(OC[C@@H]3CCCN3C)nc3c2CCN(c2cccc4ccccc24)C3)CC1 [Example 200, (S)-1-(4-(2-((1-methylpyrrolidin-2-yl)methoxy)-7-(naphthalen-1-yl)-5,6,7,8-tetrahydropyrido[3,4-d]pyrimidin-4-yl)piperazin-1-yl)prop-2-en-1-one] | C (“C”>50% POC) | –
